{"sequences": {"note": "Sequences of proteins named here, by UniProt entry; tags and fusion partners are left off.", "UniProt P50750, whole entry": "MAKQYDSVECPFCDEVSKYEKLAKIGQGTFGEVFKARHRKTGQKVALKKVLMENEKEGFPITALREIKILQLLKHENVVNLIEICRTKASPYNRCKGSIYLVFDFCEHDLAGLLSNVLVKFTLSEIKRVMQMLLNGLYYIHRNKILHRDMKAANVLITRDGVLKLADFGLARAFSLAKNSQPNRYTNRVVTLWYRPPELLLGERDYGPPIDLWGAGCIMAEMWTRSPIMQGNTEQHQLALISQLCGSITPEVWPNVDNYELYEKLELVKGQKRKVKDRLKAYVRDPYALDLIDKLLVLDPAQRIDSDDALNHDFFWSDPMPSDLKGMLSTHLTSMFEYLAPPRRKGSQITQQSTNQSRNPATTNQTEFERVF"}, "source": "ChEMBL document CHEMBL6071206", "about": "“Development of BODIPY FL SNS 032 as a Versatile Probe for Constitutive Androstane Receptor and Multiple Kinases” (ACS Med Chem Lett, 2024)", "target": "CDK9/cyclin T1 (Homo sapiens, UniProt P50750)", "assay": "Inhibition of His-tagged human CDK9/CycT1 incubated for 90 mins by TR-FRET assay", "assay_type": "protein-complex assay", "data": [{"smiles": "Cn1cc(C2=C(c3cn(CCCSC(=N)N)c4ccccc34)C(=O)NC2=O)c2ccccc21", "note": "[BISINDOLYLMALEIMIDE IX]", "values": [{"measurement": "IC50", "result": 1, "unit": "nM"}]}]}
